The source of these data is patent US8809619B2, “Knockout mice for a P450 gene cluster” (ITI Scotland Limited, priority 2007, dated 2014).

The structures appear in SMILES notation.

The conditions of the series: C57BL/6J.

`CO[C@H]1/C=C/O[C@@]2(C)Oc3c(C)c(O)c4c(O)c(c(/C=N/N5CCN(C)CC5)c(O)c4c3C2=O)NC(=O)/C(C)=C\C=C\[C@H](C)[C@H](O)[C@@H](C)[C@@H](O)[C@@H](C)[C@H](OC(C)=O)[C@@H]1C` [rifampicin]: the “Liver/Body weight ratio, % mean of corresponding strain control” value (RIF 60 mg/kg 3 daily doses, +/- % SD) is “(112 +/− 11) %”. Moreover, the “Liver/Body weight Ratio × 100” value (RIF 60 mg/kg IP 3 daily doses, mean +/- SD, n=4) is recorded as 5 +/− 0.5.
